# Assay results from patent US20250325529A1, “INHIBITORS OF FATTY ACID BINDING PROTEINS (FABPs), METHODS OF USE AND METHODS OF MAKING” (Celloram, inc., priority 2024, published 2025).
# Amino acid sequences for entries named in this document (tags omitted).
# UniProt P37231, whole entry, species assumed: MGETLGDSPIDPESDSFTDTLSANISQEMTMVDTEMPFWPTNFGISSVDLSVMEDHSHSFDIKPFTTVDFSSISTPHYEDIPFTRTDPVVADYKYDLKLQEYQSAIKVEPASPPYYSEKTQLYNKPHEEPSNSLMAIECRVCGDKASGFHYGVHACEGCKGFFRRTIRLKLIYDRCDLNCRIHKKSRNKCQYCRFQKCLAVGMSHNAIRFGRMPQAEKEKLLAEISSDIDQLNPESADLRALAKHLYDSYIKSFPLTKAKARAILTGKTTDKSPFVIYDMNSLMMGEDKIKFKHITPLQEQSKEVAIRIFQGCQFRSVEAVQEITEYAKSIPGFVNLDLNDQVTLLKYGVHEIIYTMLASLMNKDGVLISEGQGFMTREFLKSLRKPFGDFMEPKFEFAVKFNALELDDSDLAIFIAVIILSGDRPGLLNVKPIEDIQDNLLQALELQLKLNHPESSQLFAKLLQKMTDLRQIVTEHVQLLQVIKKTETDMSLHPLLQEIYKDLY
# Target: PPARγ (Homo sapiens (Human), UniProt P37231)
# Test: Transcriptional activation assay in COS7 cells, PPARγ
# Format: cell-based
structure (smiles),measurement,value
"CN(CCOc1ccc(CC2SC(=O)NC2=O)cc1)c1ccccn1 (stereo not shown) [rosiglitazone, reference compound]",Activation of transcription by PPARγ,induced activation of their respective receptors
